US20090326001A1, “THIENOPYRIDINE DERIVATIVES AS MODULATORS OF METABOTROPIC GLUTAMATE RECEPTORS” (priority 2005, published 2009)

Sequences of proteins named here, by UniProt entry; tags and fusion partners are left off. Residues count along the entry.
UniProt P23385, 19-1199 limits assumed: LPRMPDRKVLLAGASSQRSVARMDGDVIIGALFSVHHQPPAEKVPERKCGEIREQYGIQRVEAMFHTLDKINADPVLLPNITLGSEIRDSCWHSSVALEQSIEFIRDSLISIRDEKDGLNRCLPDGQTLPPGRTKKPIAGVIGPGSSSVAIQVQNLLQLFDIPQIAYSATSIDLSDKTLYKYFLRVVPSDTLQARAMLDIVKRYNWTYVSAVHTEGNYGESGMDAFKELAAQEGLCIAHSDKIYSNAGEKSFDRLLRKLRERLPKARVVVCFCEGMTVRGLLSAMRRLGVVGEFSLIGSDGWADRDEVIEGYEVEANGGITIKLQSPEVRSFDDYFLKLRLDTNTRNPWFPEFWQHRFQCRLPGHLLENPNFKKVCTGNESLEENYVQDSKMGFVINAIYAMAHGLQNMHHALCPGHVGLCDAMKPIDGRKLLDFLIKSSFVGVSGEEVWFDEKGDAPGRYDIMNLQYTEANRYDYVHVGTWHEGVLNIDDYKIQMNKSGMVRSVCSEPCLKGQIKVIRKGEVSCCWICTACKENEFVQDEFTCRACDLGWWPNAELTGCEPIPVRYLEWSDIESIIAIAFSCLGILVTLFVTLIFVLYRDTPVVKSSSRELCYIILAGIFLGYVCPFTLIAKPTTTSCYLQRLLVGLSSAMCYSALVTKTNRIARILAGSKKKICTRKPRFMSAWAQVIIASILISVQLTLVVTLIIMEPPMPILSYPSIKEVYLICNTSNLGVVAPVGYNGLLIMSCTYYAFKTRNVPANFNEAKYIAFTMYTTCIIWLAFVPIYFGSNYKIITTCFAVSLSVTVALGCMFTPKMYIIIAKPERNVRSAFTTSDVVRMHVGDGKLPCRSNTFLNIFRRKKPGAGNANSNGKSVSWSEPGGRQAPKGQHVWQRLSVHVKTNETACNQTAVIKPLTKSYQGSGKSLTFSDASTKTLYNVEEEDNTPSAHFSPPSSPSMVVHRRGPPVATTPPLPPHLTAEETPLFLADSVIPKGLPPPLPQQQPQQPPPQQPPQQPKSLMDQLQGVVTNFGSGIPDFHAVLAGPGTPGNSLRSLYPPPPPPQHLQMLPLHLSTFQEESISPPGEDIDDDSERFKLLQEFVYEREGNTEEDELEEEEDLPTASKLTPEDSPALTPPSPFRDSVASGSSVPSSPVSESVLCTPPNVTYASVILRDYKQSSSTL
UniProt P31424, whole entry: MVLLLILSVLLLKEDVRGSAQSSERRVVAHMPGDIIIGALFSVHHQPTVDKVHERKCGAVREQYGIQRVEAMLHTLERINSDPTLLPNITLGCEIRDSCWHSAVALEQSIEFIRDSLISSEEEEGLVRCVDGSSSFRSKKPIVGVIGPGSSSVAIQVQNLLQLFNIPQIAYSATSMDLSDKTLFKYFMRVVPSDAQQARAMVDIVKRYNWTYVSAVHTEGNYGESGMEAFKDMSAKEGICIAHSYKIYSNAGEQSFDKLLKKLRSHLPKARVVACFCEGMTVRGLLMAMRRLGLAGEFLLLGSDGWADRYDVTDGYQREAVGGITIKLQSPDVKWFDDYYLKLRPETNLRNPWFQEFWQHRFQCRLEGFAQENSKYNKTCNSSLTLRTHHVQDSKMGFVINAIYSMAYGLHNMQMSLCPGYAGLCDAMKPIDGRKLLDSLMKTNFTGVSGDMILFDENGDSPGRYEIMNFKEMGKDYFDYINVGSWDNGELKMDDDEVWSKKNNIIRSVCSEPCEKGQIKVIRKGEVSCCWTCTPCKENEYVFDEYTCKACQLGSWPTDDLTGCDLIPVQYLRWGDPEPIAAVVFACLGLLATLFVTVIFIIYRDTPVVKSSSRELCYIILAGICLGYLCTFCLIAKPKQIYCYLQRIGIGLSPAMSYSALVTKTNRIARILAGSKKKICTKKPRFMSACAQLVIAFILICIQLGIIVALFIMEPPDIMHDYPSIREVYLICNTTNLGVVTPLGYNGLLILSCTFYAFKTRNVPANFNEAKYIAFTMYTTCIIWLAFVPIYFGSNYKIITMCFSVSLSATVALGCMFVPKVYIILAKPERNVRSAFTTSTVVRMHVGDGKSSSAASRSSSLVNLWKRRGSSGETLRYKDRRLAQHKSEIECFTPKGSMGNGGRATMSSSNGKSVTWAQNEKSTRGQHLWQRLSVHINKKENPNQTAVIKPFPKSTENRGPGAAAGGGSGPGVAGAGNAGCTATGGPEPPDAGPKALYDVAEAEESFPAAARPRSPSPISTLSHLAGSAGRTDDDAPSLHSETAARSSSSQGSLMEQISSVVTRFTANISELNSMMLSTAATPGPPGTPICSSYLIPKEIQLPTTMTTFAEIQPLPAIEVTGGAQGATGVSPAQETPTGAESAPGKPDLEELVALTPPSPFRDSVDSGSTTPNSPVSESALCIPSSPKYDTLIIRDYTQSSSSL

Columns and labels:
rat mGluR1 = rat mGluR1 (Rattus norvegicus, UniProt P23385); assay: mGluR1 receptor binding test ([3H]R214127 displacement, rat cerebellar membrane); details: read-out: mGlu1 Ki, radioligand [3H]R214127 3 nM
Procedure: MGluR1 receptor binding testes were performed according to modified method of Lavreysen et al. (Mol. Pharm., 2003, 63, 1082). Based on the high homology between the human and rat mGluR1 receptors, rat cerebellar membrane preparation was used to determine the binding characteristics of reference compounds and novel compounds to the rat mGluR1. As radioligand [3H]R214127 (3 nM) was used and the nonspecific binding was determined in the presence of 1 μM of R214127.
IC-50 values were determined from displacement curves by nonlinear regression analysis and were converted by equation method of Cheng and Prusoff (Biochem. Pharmacol., 1973, 22, 3099) to Ki values.

mGluR5 = mGluR5 (UniProt P31424); assay: mGluR5 receptor binding test ([3H]-M-MPEP displacement); details: read-out: mGlu5 Ki; radioligand [3H]-M-MPEP 2 nM; table does not say rat cerebro-cortical membrane or human mGluR5a A18 cells

Structure (SMILES)	Ki (rat mGluR1)	Ki (mGluR5)
O=C(NC1C2CC3CC(C2)CC1C3)c1sc2ncccc2c1-c1ccc(Cl)cc1 (stereo not drawn)	> 1.5 µM	0.5 to 1.5 µM
CN(C(=O)c1sc2ncccc2c1-c1ccc(Cl)cc1)C1CCCCC1	> 1.5 µM	> 1.5 µM
CC(C)(Cc1ccccc1)NC(=O)c1sc2ncccc2c1-c1ccc(Cl)cc1	0.5 to 1.5 µM	> 1.5 µM
O=C(Oc1ccc(F)cc1)c1sc2ncccc2c1-c1ccc(Cl)cc1	> 1.5 µM	> 1.5 µM
CCOC(=O)CNC(=O)c1sc2ncccc2c1-c1ccc(F)cc1	> 1.5 µM	> 1.5 µM
O=C(CCc1ccc(Cl)cc1)c1sc2ncccc2c1-c1ccc(F)cc1	< 0.5 µM	0.5 to 1.5 µM
O=C(NC12CC3CC(CC(C3)C1)C2)c1sc2ncccc2c1-c1ccc(Cl)cc1	> 1.5 µM	> 1.5 µM
O=C(c1ccc(Cl)cc1)c1sc2ncccc2c1-c1ccc(F)cc1	> 1.5 µM	> 1.5 µM
O=C(CCc1ccc(Br)cc1)c1sc2ncccc2c1-c1ccc(F)cc1	< 0.5 µM	0.5 to 1.5 µM
